Details: known phenolic antioxidants compared with theaflavin

Substance: isobutein
- stabilizing property for sunscreens: did not provide the stabilizing property

Reference: US8940343B2, “Personal care composition” (Conopco Inc., priority 2010, dated 2015)
